# Measurements reported in patent EP0791072B1, “PROCESS FOR DETERMINING THE ACTIVITY OF SPECIFIC PHOSPHOTYROSINE PHOSPHATASES AND SPECIFIC EFFECTORS THEREOF IN INTACT CELLS” (Max-Planck-Gesellschaft zur Förderung der Wissenschaften …, priority 1994, dated 1996).
# Tested on: PDGF-Rezeptor-gerichtete(n) PTPase(n)
# Assay: Effector test for PDGF receptor-directed PTPase activity in intact Swiss 3T3 cells (AG 1296 test, quantified immunoblots)
# Format: cell-based, Maus
# Conditions: effector 2 mM, relative dephosphorylation of PDGF receptor after 5 min, control without effector = 100 %
substance,measurement,value
Na-Orthovanadat,Relative PDGF Rezeptor-gerichtete PTPase-Aktivität (% der Kontrolle),34 % der Kontrolle
